Laboratory results published in paper PMC3212511.

Protein sequences, listed by entry. Tags and fused reporters are not part of them.
UniProt P17661, whole entry: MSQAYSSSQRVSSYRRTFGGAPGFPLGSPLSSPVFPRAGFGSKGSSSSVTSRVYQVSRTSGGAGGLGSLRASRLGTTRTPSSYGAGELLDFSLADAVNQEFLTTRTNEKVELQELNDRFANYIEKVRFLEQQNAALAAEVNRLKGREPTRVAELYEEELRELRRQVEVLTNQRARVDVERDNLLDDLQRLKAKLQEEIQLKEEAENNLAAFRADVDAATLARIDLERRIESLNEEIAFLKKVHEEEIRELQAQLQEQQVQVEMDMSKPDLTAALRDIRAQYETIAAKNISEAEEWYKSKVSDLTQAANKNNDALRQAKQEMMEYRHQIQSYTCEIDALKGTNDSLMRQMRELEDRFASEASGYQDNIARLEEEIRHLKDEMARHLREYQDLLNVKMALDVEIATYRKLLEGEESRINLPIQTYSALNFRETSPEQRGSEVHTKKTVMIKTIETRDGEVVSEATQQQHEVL

Molecular target: human desmin (assembled into filaments in vitro) (human) (UniProt P17661)
Assay: co-sedimentation; high-speed assay: desmin 0.2 g/l co-assembled with αB-crystallin 0.08 g/l at 44°C (20 mM Tris-HCl pH7.4, 50 mM NaCl, 16 h); 80,000 g, 30 min, 4°C through a 0.85 M sucrose cushion; SDS-PAGE densitometry of pellet and supernatant

% of αB-crystallin in the high-speed pellet with desmin [%]	Substance
> 95	CEβ8 αB-crystallin (β8-strand of human αB-crystallin substituted with that of C. elegans HSP12.2)
> 95	Δ155–165 αB-crystallin (human αB-crystallin with C-terminal residues 155–165 deleted)
